Molecules are shown by their SMILES.

Amino acid sequences for entries named in this document (tags omitted).
UniProt P51681, whole entry: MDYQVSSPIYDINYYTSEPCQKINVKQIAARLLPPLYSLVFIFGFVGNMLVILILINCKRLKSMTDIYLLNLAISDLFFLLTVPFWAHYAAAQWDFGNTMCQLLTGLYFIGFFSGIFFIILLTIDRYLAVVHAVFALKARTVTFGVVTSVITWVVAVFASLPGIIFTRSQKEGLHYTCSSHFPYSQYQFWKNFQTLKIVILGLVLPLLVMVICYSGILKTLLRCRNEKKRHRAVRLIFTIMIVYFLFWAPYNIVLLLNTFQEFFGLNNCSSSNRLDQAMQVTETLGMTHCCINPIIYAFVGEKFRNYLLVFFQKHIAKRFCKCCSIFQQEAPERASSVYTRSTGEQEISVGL

The test has as its target recombinant human CCR5 receptor (Homo sapiens, UniProt P51681). The test can be described thus: MIP-1α radioligand binding assay (scintillation proximity). Particulars: displacement of 0.1 nM iodinated MIP-1α; membranes from Chinese hamster ovary cells expressing recombinant human CCR5; average if tested more than once. On the procedure:
The ability of compounds to inhibit the binding of MIP-1α was assessed by an in vitro radioligand binding assay. Membranes were prepared from Chinese hamster ovary cells which expressed the recombinant human CCR5 receptor. These membranes were incubated with 0.1 nM iodinated MIP-1α, scintillation proximity beads and various concentrations of the compounds of the invention in 96-well plates. The amount of iodinated MIP-1α bound to the receptor was determined by scintillation counting. Competition curves were obtained for compounds and the concentration of compound which displaced 50% of bound iodinated MIP-1α was calculated (IC50).
In Table X the results are presented as Pic50 values. A Pic50 value is the negative log (to base 10) of the IC50 result, so an IC50 of 1 μM (that is 1×10^−6M) gives a Pic50 of 6. If a compound was tested more than once then the data below is an average of the probative tests results.
(In a scintillation proximity assay essentially only radioactivity close to the scintillant gives light.)

For `COc1ccc(S(=O)(=O)CCC2(O)CCN(CC[C@@H](c3cc(F)cc(F)c3)C3CCN(S(C)(=O)=O)CC3)CC2)cc1`, the Pic50 was found to be 9.5. `CS(=O)(=O)c1ccc([C@@H](CCN2CCC(C#N)(CCS(=O)(=O)c3ccc(S(C)(=O)=O)cc3)CC2)c2cc(F)cc(F)c2)cc1`: the Pic50 turned out to be 8.5.

`CC1(CCS(=O)(=O)c2ccc(S(C)(=O)=O)cc2)CCN(CCC(c2ccccc2)C2CCN(S(C)(=O)=O)CC2)CC1` (stereo not shown): the Pic50 is given as 9.2. As for `CC1([C@@H](CCN2CCC(C#N)(CCS(=O)(=O)c3ccc(S(C)(=O)=O)cc3)CC2)c2cc(F)cc(F)c2)CCOCC1`, the Pic50 is recorded as 7.7. On to `CS(=O)(=O)c1ccc(S(=O)(=O)CCC2(F)CCN(CC[C@H](NC(=O)C3CCC(F)(F)CC3)c3ccccc3)CC2)cc1`, for which the Pic50 is reported as 9.5.

As for `Cn1ccnc1C1(O)C[C@H]2CC[C@@H](C1)N2CC[C@@H](c1cc(F)cc(F)c1)C1CCN(S(C)(=O)=O)CC1` (stereo partly shown), the Pic50 turned out to be 7.3. Next, `COC1(CCS(=O)(=O)c2ccc(S(C)(=O)=O)cc2)CCN(CC[C@@H](c2cc(F)cc(F)c2)C2CCN(S(C)(=O)=O)CC2)CC1`: 9.3; `CS(=O)(=O)c1ccc(CC2(O)CCN(CC[C@@H](c3cc(F)cc(F)c3)C3CCN(S(C)(=O)=O)CC3)CC2)cc1`: 8.1; `CS(=O)(=O)c1ccc(S(=O)(=O)CCC2(F)CCN(CC[C@@H](c3cc(F)cc(F)c3)C3CCOCC3)CC2)cc1`: 9.3. Consider `CS(=O)(=O)c1ccc(S(=O)(=O)CCC2(F)CCN(CC[C@@H](c3cc(F)cc(F)c3)C3CCS(=O)(=O)CC3)CC2)cc1`, for which the Pic50 turned out to be 9.4. Next, `CCC1(NC(=O)Cc2ccc(S(C)(=O)=O)cc2)CCN(CC[C@H](c2ccc(S(C)(=O)=O)cc2)c2cc(F)cc(F)c2)CC1`: 5.8. Next, `CCN(C(=O)Cc1ccc(S(C)(=O)=O)cc1)C1(C)CCN(CC[C@@H](c2cc(F)cc(F)c2)C2CCN(S(C)(=O)=O)CC2)CC1`: 8.0; `COC1(CCS(=O)(=O)c2ccc(S(C)(=O)=O)cc2)CCN(CC[C@@H](c2cc(F)cc(F)c2)C2CCOCC2)CC1`: 9.5. For `CC1(CCS(=O)(=O)C2CCOCC2)CCN(CC[C@@H](c2cc(F)cc(F)c2)C2CCN(S(C)(=O)=O)CC2)CC1`, the Pic50 is 8.3. Next, `CS(=O)(=O)c1ccc([C@@H](CCN2CCC(F)(CCS(=O)(=O)c3ccc(S(C)(=O)=O)cc3)CC2)c2cc(F)cc(F)c2)cc1`: 8.9; `CC1(n2cnc3cc(S(C)(=O)=O)ccc32)CCN(CC[C@H](c2ccc(S(C)(=O)=O)cc2)c2cc(F)cc(F)c2)CC1`: 8.3. With `CS(=O)(=O)c1ccc(S(=O)(=O)CCC2(C#N)CCN(CC[C@@H](c3cc(F)cc(F)c3)C3CCN(S(C)(=O)=O)CC3)CC2)cc1`, the Pic50 is 9.4.

On to `Cn1ccnc1CC1(O)CCN(CC[C@@H](c2cc(F)cc(F)c2)C2CCN(S(C)(=O)=O)CC2)CC1`, for which the Pic50 is on record as 6.3. `CCC1(CCS(=O)(=O)c2ccc(S(C)(=O)=O)cc2)CCN(CC[C@@H](c2cc(F)cc(F)c2)C2CCN(S(C)(=O)=O)CC2)CC1`: the Pic50 worked out at 8.3. Next, `COc1ccc(S(=O)(=O)CCC2(OC)CCN(CC[C@@H](c3cc(F)cc(F)c3)C3CCN(S(C)(=O)=O)CC3)CC2)cc1`: 9.3; `CCC1(CCS(=O)(=O)c2ccc(S(C)(=O)=O)cc2)CCN(CC[C@H](c2ccc(S(C)(=O)=O)cc2)c2cc(F)cc(F)c2)CC1`: 8.0; `CC1(CCS(=O)(=O)c2ccc(S(C)(=O)=O)cc2)CCN(CC[C@@H](c2cc(F)cc(F)c2)C2CCS(=O)(=O)CC2)CC1`: 9.5.

The record behind these values is US20080021038A1, “Novel Piperidine/8-Azabicyclo [3.2.1.] Octan Derivatives As Modulators Of Chemokine Receptor Ccr5” (priority 2004, published 2008).
